Earlier results on 1 substance are cited in patent publication US10758484B2, “CED of SN-38-loaded micelles against brain tumor” (Nippon Kayaku Co., Ltd., priority 2014, dated 2020).

The conditions of this series: cited from earlier work.

On to “7-ethyl-10-hydroxy-camptothecine [SN-38]”, for which the water solubility entry is “water-insoluble”.
